Reference: ChEMBL document CHEMBL1142345, “Synthesis and biological evaluation of alpha- and beta-6-amido derivatives of 17-cyclopropylmethyl-3, 14beta-dihydroxy-4, 5alpha-epoxymorphinan: potential alcohol-cessation agents” (J Med Chem, 2008)

Protein sequences, listed by entry. Tags and fused reporters are not part of them. Lines headed by an entry give the natural chain unless they say otherwise; changes in a name come on top.
UniProt P41143, whole entry: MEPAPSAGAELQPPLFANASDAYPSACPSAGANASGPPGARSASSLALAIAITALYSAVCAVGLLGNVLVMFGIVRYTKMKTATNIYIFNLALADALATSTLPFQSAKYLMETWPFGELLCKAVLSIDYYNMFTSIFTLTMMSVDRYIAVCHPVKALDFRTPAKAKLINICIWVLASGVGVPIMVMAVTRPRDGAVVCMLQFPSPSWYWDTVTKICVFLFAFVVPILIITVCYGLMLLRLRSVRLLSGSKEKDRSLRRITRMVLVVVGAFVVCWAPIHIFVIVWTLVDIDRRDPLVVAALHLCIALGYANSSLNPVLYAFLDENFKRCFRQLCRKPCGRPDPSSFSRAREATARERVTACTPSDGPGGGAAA
UniProt P41145: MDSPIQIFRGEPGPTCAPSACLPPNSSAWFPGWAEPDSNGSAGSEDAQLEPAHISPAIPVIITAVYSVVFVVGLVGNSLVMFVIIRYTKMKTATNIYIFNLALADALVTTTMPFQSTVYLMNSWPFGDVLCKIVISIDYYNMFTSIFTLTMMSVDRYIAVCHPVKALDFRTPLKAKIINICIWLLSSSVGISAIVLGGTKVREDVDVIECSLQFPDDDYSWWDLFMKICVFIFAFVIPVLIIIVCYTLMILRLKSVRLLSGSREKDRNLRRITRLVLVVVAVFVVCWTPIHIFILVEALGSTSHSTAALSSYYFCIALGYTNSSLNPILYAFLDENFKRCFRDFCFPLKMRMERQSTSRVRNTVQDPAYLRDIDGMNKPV

How the values were obtained:
[1] = target: T1, Delta-type opioid receptor (Homo sapiens, UniProt P41143); assay: biochemical
[2] = target: Kappa-type opioid receptor (Homo sapiens, UniProt P41145); assay: Displacement of [3H]U69593 from human kappa opioid receptor expressed in CHO cells; assay type: cell-based
[3] = target: T1, Delta-type opioid receptor; assay: Activity at human delta opioid receptor by [35S]GTPgammaS binding assay; assay type: functional; conditions: read-out: pA2 (converted)

| SMILES | Ki [1] | Ki [2] | Kb [3] |
| --- | --- | --- | --- |
| O=C(N[C@@H]1CC[C@@]2(O)[C@H]3Cc4ccc(O)c5c4[C@@]2(CCN3CC2CC2)[C@H]1O5)c1ccc(Cl)cc1 | 1.4 nM |  |  |
| C=C1CC[C@@]2(O)[C@H]3Cc4ccc(O)c5c4[C@@]2(CCN3CC2CC2)[C@H]1O5 |  | 1.03 nM | 0.912 nM |
